We go through two compounds from paper PMC8523698, “Preclinical characterization of an intravenous coronavirus 3CL protease inhibitor for the potential treatment of COVID19” (Nature Communications, 2021).

Sequences of proteins named here, by UniProt entry; tags and fusion partners are left off. Residues count along the entry.
UniProt Q86VL8, 1-566 isoform Q86VL8-3: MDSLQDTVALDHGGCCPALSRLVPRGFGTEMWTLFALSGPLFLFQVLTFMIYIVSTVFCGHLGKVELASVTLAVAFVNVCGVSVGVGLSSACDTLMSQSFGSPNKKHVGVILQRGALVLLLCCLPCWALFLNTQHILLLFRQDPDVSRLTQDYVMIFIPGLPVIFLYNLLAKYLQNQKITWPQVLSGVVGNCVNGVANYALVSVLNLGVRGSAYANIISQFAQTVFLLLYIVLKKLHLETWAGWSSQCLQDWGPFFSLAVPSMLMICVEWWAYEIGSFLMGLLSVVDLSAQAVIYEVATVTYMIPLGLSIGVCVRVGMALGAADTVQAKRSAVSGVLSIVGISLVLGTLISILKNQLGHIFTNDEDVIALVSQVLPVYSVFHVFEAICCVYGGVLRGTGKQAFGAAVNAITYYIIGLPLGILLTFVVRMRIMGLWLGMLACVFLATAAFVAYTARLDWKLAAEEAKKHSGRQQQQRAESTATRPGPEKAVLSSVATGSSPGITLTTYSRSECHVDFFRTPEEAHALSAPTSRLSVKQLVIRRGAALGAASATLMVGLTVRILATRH

Assay in all cases: Transporter inhibition using transfected HEK293 cells
For data set [1], the target named is T1, MATE1 (Homo sapiens, UniProt Q96FL8).
T1 sequence (Q96FL8 1-570): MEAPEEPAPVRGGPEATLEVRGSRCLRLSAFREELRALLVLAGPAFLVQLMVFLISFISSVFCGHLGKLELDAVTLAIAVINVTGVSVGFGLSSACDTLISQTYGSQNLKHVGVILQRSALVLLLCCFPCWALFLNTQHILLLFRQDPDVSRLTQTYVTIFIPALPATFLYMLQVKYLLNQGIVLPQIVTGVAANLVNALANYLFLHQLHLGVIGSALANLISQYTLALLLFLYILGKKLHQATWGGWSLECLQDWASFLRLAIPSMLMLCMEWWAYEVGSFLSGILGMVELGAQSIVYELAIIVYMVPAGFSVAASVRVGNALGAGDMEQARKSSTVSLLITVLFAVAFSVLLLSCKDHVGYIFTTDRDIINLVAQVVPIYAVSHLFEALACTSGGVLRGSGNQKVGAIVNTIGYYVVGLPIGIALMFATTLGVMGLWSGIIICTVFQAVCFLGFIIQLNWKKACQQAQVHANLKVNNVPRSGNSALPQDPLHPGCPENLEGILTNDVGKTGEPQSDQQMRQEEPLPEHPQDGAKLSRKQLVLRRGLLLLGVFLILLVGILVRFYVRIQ
As to conditions: uptake of [14C]-metformin by MATE1, single replicates.

Data set [2] addresses T2, OCT2 (Homo sapiens, UniProt O15244).
T2 sequence (O15244 1-555): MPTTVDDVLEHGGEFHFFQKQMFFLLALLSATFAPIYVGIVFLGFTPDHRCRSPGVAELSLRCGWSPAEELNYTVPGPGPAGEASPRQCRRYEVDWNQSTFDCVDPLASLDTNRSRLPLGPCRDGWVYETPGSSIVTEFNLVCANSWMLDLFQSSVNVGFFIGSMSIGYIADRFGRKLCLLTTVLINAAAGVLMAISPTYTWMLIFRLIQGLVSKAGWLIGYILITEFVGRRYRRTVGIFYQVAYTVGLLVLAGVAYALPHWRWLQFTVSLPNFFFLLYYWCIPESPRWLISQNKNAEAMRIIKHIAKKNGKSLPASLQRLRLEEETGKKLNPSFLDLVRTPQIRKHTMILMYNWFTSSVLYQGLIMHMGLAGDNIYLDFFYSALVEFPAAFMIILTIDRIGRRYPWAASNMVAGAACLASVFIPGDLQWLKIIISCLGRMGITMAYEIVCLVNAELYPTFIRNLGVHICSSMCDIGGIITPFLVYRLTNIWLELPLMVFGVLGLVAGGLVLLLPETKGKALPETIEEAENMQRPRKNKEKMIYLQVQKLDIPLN
The settings on record: uptake of [14C]-metformin by OCT2, single replicates.

The target of data set [3] is T3, MATE2K (Homo sapiens, UniProt Q86VL8).
T3 construct: expressed in transfected cells; host or cells: HEK293
The class given is in vitro ADME. The settings on record: uptake of [14C]-metformin by MATE2K, single replicates.

Data set [4] deals with T4, OATP1B3 (Homo sapiens, UniProt Q9NPD5).
T4 sequence (Q9NPD5 1-702): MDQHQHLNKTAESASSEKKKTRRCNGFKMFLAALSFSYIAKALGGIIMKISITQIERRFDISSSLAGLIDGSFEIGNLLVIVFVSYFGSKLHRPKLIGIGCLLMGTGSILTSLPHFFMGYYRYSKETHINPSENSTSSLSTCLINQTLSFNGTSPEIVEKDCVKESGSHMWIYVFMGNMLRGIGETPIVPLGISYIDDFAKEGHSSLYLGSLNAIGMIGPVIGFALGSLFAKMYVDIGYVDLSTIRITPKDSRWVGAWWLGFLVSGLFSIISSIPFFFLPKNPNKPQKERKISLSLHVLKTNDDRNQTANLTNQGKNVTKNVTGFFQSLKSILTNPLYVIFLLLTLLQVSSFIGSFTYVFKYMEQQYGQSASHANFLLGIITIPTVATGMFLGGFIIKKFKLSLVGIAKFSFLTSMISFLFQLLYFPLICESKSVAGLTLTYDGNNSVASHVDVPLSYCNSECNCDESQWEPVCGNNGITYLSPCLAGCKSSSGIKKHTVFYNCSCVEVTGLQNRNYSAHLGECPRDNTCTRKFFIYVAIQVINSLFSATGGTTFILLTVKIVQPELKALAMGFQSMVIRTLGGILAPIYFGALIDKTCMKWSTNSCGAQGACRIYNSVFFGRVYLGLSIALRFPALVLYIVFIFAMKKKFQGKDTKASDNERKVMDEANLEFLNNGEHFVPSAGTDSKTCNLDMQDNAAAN
As to conditions: uptake of Rosuvastatin by OATP1B3; inhibitor 1.1719 uM.

The mark [5] stands for this setting: inhibitor concentration 0.0732 uM.
[6] abbreviates: inhibitor concentration 0.2930 uM.
The mark [7] stands for this setting: inhibitor concentration 1.1719 uM.
Setting [8] is: inhibitor concentration 4.6875 uM.
Where [9] appears, read: inhibitor concentration 18.7500 uM.
Where [10] appears, read: inhibitor concentration 300.0000 uM.

Molecules are shown by their SMILES. Where “and” joins values, the source holds several entries; their conditions need not be identical. Equal entries are not always repeated.

Take `COc1cccc2[nH]c(C(=O)N[C@@H](CC(C)C)C(=O)N[C@@H](C[C@@H]3CCNC3=O)C(=O)CO)cc12` [PF-00835231]: the “% Uptake Activity” value is 101.859% in data set [1] (setting [5]); 91.784% and 92.362% in data set [1] (setting [6]); 105.553% in data set [1] (setting [7]); 103.166% and 111.935% in data set [1] (setting [8]); 82.513% and 84.925% and 83.116% in data set [1] (setting [9]); 40.653% and 36.131% and 35.653% in data set [1] (setting [10]). The “% Uptake Activity” value in data set [2] (setting [5]) is 82.815%; in data set [2] (setting [6]), 90.372% and 96.587%; in data set [2] (setting [7]), 89.681% and 92.220% and 101.584%; in data set [2] (setting [8]) it was 81.820% and 89.092% and 95.795%; in data set [2] (setting [9]) it was 90.311% and 123.136%; in data set [2] (setting [10]), 76.092% and 75.036% and 82.714%. For the same compound, the “% Uptake Activity” value was 89.144% and 88.309% and 82.881% in data set [3] (setting [5]); 75.783% and 79.749% in data set [3] (setting [6]); 90.397% and 94.363% and 79.123% in data set [3] (setting [7]); 117.745% and 88.935% in data set [3] (setting [8]); 82.463% and 84.760% and 79.123% in data set [3] (setting [9]); 37.161% and 37.370% and 34.238% in data set [3] (setting [10]).

On to `COc1cccc2[nH]c(C(=O)N[C@@H](CC(C)C)C(=O)N[C@@H](C[C@@H]3CCNC3=O)C(=O)COP(=O)(O)O)cc12` [PF-07304814], for which the “% Uptake Activity” value is 125.678% and 115.377% in data set [1] (setting [5]); 106.608% and 105.754% in data set [1] (setting [6]); 108.317% and 108.894% in data set [1] (setting [7]); 119.121% and 106.734% in data set [1] (setting [8]); 107.814% and 106.156% in data set [1] (setting [9]); 91.558% and 93.518% and 88.141% in data set [1] (setting [10]). The “% Uptake Activity” value is 96.4% and 90.8% in data set [4]; 105.911% and 108.085% in data set [2] (setting [6]); 107.678% and 109.994% in data set [2] (setting [7]); 105.525% and 105.627% and 106.866% in data set [2] (setting [8]); 79.098% and 76.965% and 75.828% in data set [2] (setting [10]); 89.770% and 92.902% in data set [3] (setting [5]). Besides, the “% Uptake Activity” value in data set [3] (setting [6]) was 91.649% and 84.760% and 98.330%; in data set [3] (setting [7]), 92.693% and 86.848%; in data set [3] (setting [8]), 82.046% and 97.286% and 91.441%; in data set [3] (setting [9]) it was 92.484% and 95.825% and 87.056%; in data set [3] (setting [10]) it was 76.618% and 88.309% and 77.662%.
